Laboratory results reported in patent publication US20160346313A1, “USES OF OLIGOURONATES IN CANCER TREATMENT” (NORWEGIAN UNIVERSITY OF SCIENCE AND TECHNOLOGY, priority 2013, published 2016).

Tested on: Capan-2 human pancreas tumour xenograft
Experiment: Capan-2 human pancreas tumour xenograft model: tumour weight, with statistical analysis (ANOVA by day, Eav, log scale, exponential growth model)
Assay type: in vivo, Female Athymic Nude mice
Conditions: Day 4; Gemcitabine 5
Protocol: The purpose of this study was to evaluate the anti-tumour activity of G-Block as an enhancer in combination with gemcitabine in the Capan-2 human pancreas tumour xenograft model. Gemcitabine was dosed at a level that would not be curative and allow for proof of concept evaluation in this model. Efficacy was assessed by comparison of tumour weights of treated groups with the vehicle control group on Day 11 and 74 and between combination groups and their respective single agents on Day 11 and 74.
G-Block (Lot #PolyG 230712-Dp10, 95%G) was received as a white hygroscopic amorphous powder from NTNU Technology Transfer AS (Trondheim, Norway) and stored desiccated at room temperature until use. NTNU's G-Block was dissolved in MilliQ water to a concentration of 70 mg/ml to be used as the stock solution. […]
Female mice were inoculated subcutaneously in the right flank with 0.1 mL of a 50% RPMI/50% Matrigel™ (BD Biosciences, Bedford, Mass.) mixture containing a suspension of Capan-2 tumor cells (approximately 5.0×10^6 cells/mouse). Seven days following inoculation, tumors were measured using calipers and tumor weight was calculated using the animal study management software, Study Director V.2.1.1 (Study Log)^1. […] Body weights were recorded when the mice were randomized and were taken twice weekly thereafter in conjunction with tumor measurements. […]

## Nc1ccn([C@@H]2O[C@H](CO)[C@@H](O)C2(F)F)c(=O)n1 [Gemcitabine 5, Gemcitabine]
  Ratio vs Vehicle: 1.08
